Assay results from patent US4562191A (priority 1983, dated 1985).

Tested on: Female CD-1 albino mice
Experiment: Hot plate test (central analgesia) in the mouse
Settings: for Reaction time, basic: before treatment

In the case of CCC(=O)O[C@](Cc1ccccc1)(c1ccccc1)[C@H](C)CN(C)C [D-propoxyphene], the “Reaction time after 30 min” value (10 mg/kg s.c.) is reported as 14.4 ± 2.5 s, the “Reaction time after 30 min” value (20 mg/kg s.c., 15 animals) is reported as 13.8 ± 1.2 s and the “Reaction time, basic” value (group 10 mg/kg s.c.) is reported as 7.5 ± 0.7 s. The “Reaction time, basic” value (group 20 mg/kg s.c., 15 animals) was 6.9 ± 0.7 s.
